US11591313B2, “Inhibitors of ectonucleotide pyrophosphatase/phosphodiesterase 1 (ENPP1) and methods of use thereof” (Stingray Therapeutics, Inc., priority 2020, dated 2023)
pIC50: −log10 of the molar value. Structures can show the parent of a compound that is named as a salt.

Chains of the proteins cited; added tags and fusions are not shown. Lines headed by an entry give the natural chain unless they say otherwise; changes in a name come on top.
UniProt P22413: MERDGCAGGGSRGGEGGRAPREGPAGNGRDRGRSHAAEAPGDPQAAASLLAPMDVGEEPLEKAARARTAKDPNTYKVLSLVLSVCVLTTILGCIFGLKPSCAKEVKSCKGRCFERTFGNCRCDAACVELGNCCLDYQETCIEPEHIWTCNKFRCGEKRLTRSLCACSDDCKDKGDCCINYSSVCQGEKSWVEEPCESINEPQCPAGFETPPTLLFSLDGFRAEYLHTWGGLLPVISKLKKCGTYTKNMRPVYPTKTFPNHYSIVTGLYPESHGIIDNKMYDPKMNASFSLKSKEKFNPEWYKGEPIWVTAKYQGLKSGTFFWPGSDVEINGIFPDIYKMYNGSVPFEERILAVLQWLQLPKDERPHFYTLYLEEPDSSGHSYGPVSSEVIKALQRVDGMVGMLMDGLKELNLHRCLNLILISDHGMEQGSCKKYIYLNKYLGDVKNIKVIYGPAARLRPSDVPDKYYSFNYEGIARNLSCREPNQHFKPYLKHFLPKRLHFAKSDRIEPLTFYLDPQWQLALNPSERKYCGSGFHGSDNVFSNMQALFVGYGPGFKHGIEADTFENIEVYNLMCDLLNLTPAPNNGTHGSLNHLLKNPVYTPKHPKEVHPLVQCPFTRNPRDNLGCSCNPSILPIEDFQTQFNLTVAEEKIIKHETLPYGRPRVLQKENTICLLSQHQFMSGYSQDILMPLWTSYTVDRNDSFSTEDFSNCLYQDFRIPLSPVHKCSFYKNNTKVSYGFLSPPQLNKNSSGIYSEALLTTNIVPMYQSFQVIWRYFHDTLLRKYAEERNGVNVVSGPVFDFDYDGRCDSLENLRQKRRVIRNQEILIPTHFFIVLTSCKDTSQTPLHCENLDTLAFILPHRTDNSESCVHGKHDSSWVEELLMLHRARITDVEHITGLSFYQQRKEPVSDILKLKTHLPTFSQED

Target: Recombinant Human ENPP-1 Protein (Homo sapiens (Human), UniProt P22413)
Assay: ENPP1 Assay (TMP)
Assay type: biochemical

For `COc1cc2ncnc(N3CC4CC3CN(S(N)(=O)=O)C4)c2cc1OC` (stereo not shown) [Compound 027, 6-(6,7-dimethoxyquinazolin-4-yl)-3,6-diazabicyclo[3.2.1]octane-3-sulfonamide hydrochloride], the pIC50 was 7.68.
